Assay: Dose which caused 50% inhibition of the control intake was determined by log-probit analysis after intraperitoneal administration (CCK-8 receptor)
Conditions: Rattus norvegicus

## CSCC[C@H](NC(=O)[C@H](Cc1c[nH]c2ccccc12)NC(=O)CCCCNC(=O)[C@H](Cc1ccc(S(=O)(=O)O)cc1)NC(=O)O)C(=O)N[C@@H](CC(=O)O)C(=O)N[C@@H](Cc1ccccc1)C(N)=O
  ED50: 32 µmol/kg
